{
  "source": "patent US20260055110A1",
  "about": "(Azura Ophthalmics Ltd., priority 2021, published 2026)",
  "key": {"Rabbit Cornea Esterase": {"tested_on": "Rabbit Cornea Esterase", "assay": "Rabbit Cornea Homogenate Stability Assay (Rabbit Cornea Esterase Assay)", "conditions": "NZW, 37° C.", "protocol": "Example 1: Rabbit Cornea Homogenate Stability Assay\nDetermining Rabbit Cornea Homogenate stability of the test compounds was performed using UPLC-MS. […]\nThree to four rabbit corneas (e.g., New Zealand Whites (NZW) or Dutch Belted (DB)) of approx. 50 mg each were sliced and scraped with a scalpel and tweezers until reduced to small (1-3 mm), thin pieces. These were transferred into a glass vial containing approximately 2 mL of cold DPBS pH 7.4 buffer.\nSample was cooled intermittently on ice and shear homogenized for 3 minutes, then centrifuged for 3 min at 13,000 g. The supernatant was pipetted off into a vial, and total protein concentration determined at 280 nm. Sample was stored at −78° C. […]\nA heater shaker was set to 37° C. Into a suitable 96 well plate (Run Plate), 70 μL of 300 or 900 ng/μl esterase homogenate was pipetted into two rows as compounds were analyzed in duplicate (2 min, 5 min, 10 min, 20 min and 45 min). […]\nTo both rows of the Run Plate, 70 μL of 10 μM compound solution was added. […] Samples were analyzed as soon as practicable by UPLC-MS (Waters Xevo TQ-S).\nA heater shaker was set to 37° C. Into a suitable 96 well plate (Run Plate), 80 μL of 300 or 900 ng/μL esterase homogenate was pipetted into two rows as compounds were analyzed in duplicate (2 min, 5 min, 10 min, 20 min and 45 min). […]"}, "[1]": {"assay": "Aqueous Hydrolysis Stability Assay", "conditions": "DPBS pH 7.4, 37° C.; t = 42", "protocol": "Example 2: Aqueous Hydrolysis Stability Assay\nDetermination of aqueous stability of the test compounds was performed using UPLC-MS. A test compound 10 mM stock solution was prepared in DMSO. 10 μL of the DMSO stock solution was dissolved in 990 μL of DPBS pH 7.4 buffer to prepare a 100 μM stock. A further dilution was made by dissolving 75 μl of 100 μM stock into 225 μL of DPBS. Final DMSO concentration is 0.25%. The solution is kept at 37° C. and injected without delay into the LCMS (Waters Xevo TQ-). Additional injections were performed at appropriate time points.\nHalf-life (T1/2) of the parent conjugate was calculated using the peak area or measured concentration of the parent conjugate at each time point in the linear region of the log—linear plot."}},
  "data": [
    {"smiles": "CC(=O)N[C@@H](CS)C(=O)O[C@]1(C(=O)O)CC[C@H]2[C@@H]3CCC4=CC(=O)C=C[C@]4(C)[C@H]3[C@@H](O)C[C@@]21C", "values": [
      {"measurement": "Esterase (0.15 mg/mL) T1/2 (45 min)", "setting": "Rabbit Cornea Esterase; rabbit cornea homogenate 0.15 mg/mL", "result": ">2", "unit": "h"},
      {"measurement": "Esterase (0.45 mg/mL) T1/2 (45 min)", "setting": "Rabbit Cornea Esterase; rabbit cornea homogenate 0.45 mg/mL", "result": 1.98, "unit": "h"},
      {"measurement": "Aqueous Stability (DPBS) T1/2 after t min", "setting": "[1]", "result": 0.562, "unit": "h"}
    ]}
  ]
}
